pIC50, pKd, pKi: −log10 of the molar value.
Columns and labels:
[1] = molecular target: T1, Leukotriene A-4 hydrolase (Homo sapiens, UniProt P09960); assay: Binding affinity to human C-terminal his6-tagged/N-terminal T7 gene leader sequence-tagged LTA4H at 15 degC by ITC method
T1 sequence (P09960 whole entry): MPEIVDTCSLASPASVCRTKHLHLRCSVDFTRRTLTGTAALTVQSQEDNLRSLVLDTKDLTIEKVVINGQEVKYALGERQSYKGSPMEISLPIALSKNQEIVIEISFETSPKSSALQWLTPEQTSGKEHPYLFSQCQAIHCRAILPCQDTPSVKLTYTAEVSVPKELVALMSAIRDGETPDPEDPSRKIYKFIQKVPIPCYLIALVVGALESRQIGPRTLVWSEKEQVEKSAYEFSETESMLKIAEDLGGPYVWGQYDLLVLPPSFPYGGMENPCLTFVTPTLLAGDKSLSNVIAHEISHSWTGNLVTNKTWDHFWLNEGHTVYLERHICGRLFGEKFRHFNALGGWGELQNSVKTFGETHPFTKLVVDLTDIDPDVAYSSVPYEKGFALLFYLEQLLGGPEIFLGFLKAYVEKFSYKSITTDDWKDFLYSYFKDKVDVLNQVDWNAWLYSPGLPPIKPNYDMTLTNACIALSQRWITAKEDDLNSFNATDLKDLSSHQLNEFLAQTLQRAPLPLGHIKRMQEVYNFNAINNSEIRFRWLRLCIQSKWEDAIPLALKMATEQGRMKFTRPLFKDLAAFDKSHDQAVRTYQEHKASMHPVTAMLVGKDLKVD

[2] = molecular target: T1, Leukotriene A-4 hydrolase; assay: Binding affinity to human C-terminal his6-tagged/N-terminal T7 gene leader sequence-tagged LTA4H at 35 degC by ITC method
[3] = molecular target: T1, Leukotriene A-4 hydrolase; assay: Inhibition of human C-terminal his6-tagged/N-terminal T7 gene leader sequence-tagged LTA4H using L-arginine-7-amino-4-Methylcoumarine as substrate preincubated for 30 mins followed by substrate addition measured for 30 mins by fluorescence assay
[4] = molecular target: T1, Leukotriene A-4 hydrolase; assay: Non-competitive inhibition of human C-terminal his6-tagged/N-terminal T7 gene leader sequence-tagged LTA4H using varying levels of L-arginine-7-amino-4-Methylcoumarine as substrate preincubated for 30 mins followed by substrate addition measured for 30 mins by fluorescence assay
[5] = molecular target: T1, Leukotriene A-4 hydrolase; assay: Binding affinity to human C-terminal his6-tagged/N-terminal T7 gene leader sequence-tagged LTA4H at 25 degC by ITC method

For `CN(CCCOc1ccc(Cc2ccccc2)cc1)CCC(=O)O`, the pKd [1] was 7.22, the pKd [2] was 6.46 and the pIC50 [3] was 8.22. The pKi [4] was 8.52 and the pKd [5] was 6.54.

— ChEMBL document CHEMBL3860073, “Thermodynamic properties of leukotriene A4 hydrolase inhibitors” (Bioorg Med Chem, 2016)
